The structures appear in SMILES notation. The list shows a part of the results, in another mix than the full data. Active and inactive are the calls of the source.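 How the source made its calls: active means activation, meaning protection from cell death, of at least 50% relative to plate controls; inactive means activation below 50%.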

The nature of this test: inhibitors of TNF-alpha triggered necroptosis, primary screen, cell-based, Jurkat FADD-/-, single concentration (AID 463075).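 Further: necroptosis triggered by 40 ng/mL TNF-alpha added together with compound.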 The following applies: Jurkat FADD-/- TNF necroptosis rescue, ATP luminescence, 24 h; at 10 µM; active compounds read high; 0 = TNF only, 100 = no-TNF cells.
As for `CN1CCC(Nc2cccc(F)c2)CC1`, the activation (protection from cell death) was inactive: -1.7%.

Regarding `CC(C)c1ccc(NC2CCN(C(=O)OC(C)(C)C)CC2)cc1`, the activation (protection from cell death) is inactive: 0.557%.

On to `CN(C)c1cccc(C(=O)NCC2(N3CCCCC3)CCCCC2)c1`, for which the activation (protection from cell death) was inactive: 1.3%.

Consider `COc1ccc(CN(CCCl)CCCl)cc1Cl`, for which the activation (protection from cell death) is inactive: -6.58%.

Regarding `O=C(NCC1(N2CCOCC2)CCCCC1)c1cc(=O)[nH]c2ccccc12`, the activation (protection from cell death) is inactive: -0.629%.

`COc1ccc(NC2CCN(C(=O)OC(C)(C)C)CC2)cc1`: the activation (protection from cell death) was inactive: 0.243%.

Consider `CN1CCN(CCOC(=O)C(O)(c2ccccc2)c2ccccc2)CC1`, for which the activation (protection from cell death) is inactive: 1.68%.

On to `N#CC1(Nc2ccccc2)CCN(CCc2ccccc2)CC1`, for which the activation (protection from cell death) was inactive: 1.16%.

For the compound `O=C(NCC1(N2CCCCC2)CCCCC1)c1cccc([N+](=O)[O-])c1`, the activation (protection from cell death) was inactive: 0.0944%.

On to `Cc1ccc(OCC(C)C)c(CN(CCCl)CCCl)c1`, for which the activation (protection from cell death) is inactive: -29.2%.

Regarding `CCOc1ccc(C)cc1CN(CCCl)CCCl`, the activation (protection from cell death) was inactive: -25.8%.

As to `COc1ccc(NC2CCN(CCc3ccccc3)CC2)c(OC)c1`, the activation (protection from cell death) is inactive: 1.86%.

Regarding `O=C(NCC1(N2CCOCC2)CCCCC1)c1cc2ccccc2o1`, the activation (protection from cell death) is inactive: 0.236%.

With `O=C(OC1CN2CCC1CC2)C1c2ccccc2Oc2ccccc21` (centres undefined), the activation (protection from cell death) was inactive: 0.14%.

For `N#CC1(Nc2ccccc2)CCN(Cc2ccccc2)CC1`, the activation (protection from cell death) was inactive: 0.87%.

Regarding `CCOC(=O)N1CCC(Nc2ccc(OC)cc2)CC1`, the activation (protection from cell death) is inactive: 0.42%.

Regarding `COc1ccc(C(=O)NCC2(N3CCCCC3)CCCCC2)c(OC)c1OC`, the activation (protection from cell death) is inactive: 0.596%.

In the case of `COc1cc(OC)cc(C(=O)NCC2(N3CCOCC3)CCCCC2)c1`, the activation (protection from cell death) was inactive: 0.992%.

On to `CCC(CO)(C(=O)OC1CN2CCC1CC2)c1ccccc1` (centres undefined), for which the activation (protection from cell death) is inactive: 1.73%.

For `CCCOc1ccc(C)cc1CN(CCCl)CCCl`, the activation (protection from cell death) is inactive: -28.1%.

For `CCOc1ncccc1C(=O)NCC1(N2CCOCC2)CCCCC1`, the activation (protection from cell death) was inactive: 0.693%.

On to `CC(C)(C)OC(=O)N1CCC(Nc2ccccc2)CC1`, for which the activation (protection from cell death) was inactive: 0.739%.

With `CCN1CCC(Nc2cccc(F)c2)CC1`, the activation (protection from cell death) was inactive: 0.309%.

As to `CN(C)c1ccc(C(=O)NCC2(N3CCCCC3)CCCCC2)cc1`, the activation (protection from cell death) is inactive: 0.168%.

On to `c1ccc(CN2CCC(Nc3ccccc3)CC2)cc1`, for which the activation (protection from cell death) was inactive: 2.08%.

On to `N#Cc1ccc(C(=O)NCC2(N3CCCCC3)CCCCC2)cc1`, for which the activation (protection from cell death) was inactive: 0.736%.

With `N/C(=N\O)c1c(N)no[n+]1[O-]`, the activation (protection from cell death) was inactive: -0.28%.

For `O=C(OC1CN2CCC1CC2)C1c2ccccc2C=Cc2ccccc21` (centres undefined), the activation (protection from cell death) is inactive: 3.07%.

With `COc1ccc(C(=O)NCC2(N3CCOCC3)CCCCC2)cc1OC`, the activation (protection from cell death) was inactive: 0.35%.

For the origin of these results see PubChem BioAssay AID463075 (University of Pittsburgh Molecular Library Screening Center, 2010).
